High-throughput results from PubChem.
Rows were chosen to be rich in hits. Some 1.3% of all compounds tested hit in one or more screens of this group.
KCNH2 3.1 inh: blocks the human KCNH2 3.1 channel isoform; AID 720553; activity change, % (tested at about 1.8 µM); U2OS KCNH2 3.1, thallium flux FluxOr; stronger effect = lower value; hit rate 0.95% among 340,000;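 active = maximum activity change below -70%; inconclusive = maximum activity change from -70% to -50%; inactive = maximum activity change above -50%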;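 note: thallium influx rate constant from kinetic fluorescence after stimulation buffer; % is set by controls: 0 for no effect and ±100 for the full control effect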
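Virally transduced U2OS (3.1 isoform, 4 h infection in dark at RT) → overnight 37 C → FluxOr + Red40 in HBSS/HEPES, 45 min → stimulation buffer, 2 min kinetic read → rate constant vs DMSO controls.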
Rango-impB inh: Rango-importin beta binding inhibition | Rango CFP/YFP FRET sensor + importin beta, 45 min | Potency, µM (top dose mostly 92.2 µM), for inactives: at the top dose inhibition of complex formation | hit rate 0.031% among 340,000 | AID 540263;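 note: potency is the fitted concentration of half-maximal effect; 0% = DMSO wells and 100% = buffer wells lacking importin beta; nearly all actives have a fitted effect of over 15% in size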
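FRET biosensor Rango (snurportin 1 IBB between N-terminal EYFP and C-terminal Cerulean), 50 nM in PBS/1 mM DTT/0.02% Tween-20/0.1% BSA, preincubated 5 min RT with compound; 0.125 microM importin beta added, 45 min RT, CFP/YFP FRET ratio read.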
KCNH2 WT inh: inhibitors of human wildtype KCNH2 potassium channel | AID 720551 | activity change, % at 1.84 µM | U2OS, BacMam KCNH2, thallium flux FluxOr; stronger effect = lower value | hit rate 0.37% among 340,000 | Q12809;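 active = maximum activity change below -70%; inconclusive = maximum activity change between -70% and -50%; inactive = maximum activity change above -50%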; note: % is set by controls: 0 for no effect and ±100 for the full control effect
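U2OS cells were transduced with wild-type KCNH2 virus (2.03 x 10^8 / mL) for 4 h at room temperature, then cultured overnight at 37 C. Thallium flux was read with FluxOr dye. Rate constants were normalized to DMSO controls.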
Rango dissoc inh: inhibition of RanGTP-driven Rango-importin beta dissociation. Biochemical FRET Rango-importin beta, RanGTP-induced dissociation. Potency, µM (highest dose often 46.1 µM), inactives show at the top dose activity change, negative = inhibition. hit rate 0.071% among 340,000. AID 540253; note: potency is the fitted concentration of half-maximal effect; % of control where 0% means no effect; nearly all actives have a fitted effect of over 45% in size
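Rango (0.1 uM)–importin beta (0.25 uM) complex; RanGTP-RCC1 trigger; 45 min RT; CFP/YFP FRET read.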
Starred values were filed as active, the others as inactive; ? = inconclusive; . = no result given. Unless noted, calls come from the whole dose curve.

SMILES	KCNH2 3.1 inh	Rango-impB inh	KCNH2 WT inh	Rango dissoc inh
C/C(=N\NC(=O)c1c(Cl)c(C)nn1C)c1cccc(NC(=O)COc2ccc(Cl)cc2)c1	-82*	0%	-1	-20%
Cc1ccc(NC(=O)c2nc[nH]c2C(=O)Nc2ccc(C)cc2)cc1	10	0%	-192*	3%
CNC(=O)c1[nH]cnc1C(=O)Nc1ccc(C)cc1	7	9%	-2	8%
CC(=O)C12OC(C)(C)OC1CC1C3CCC4=CC(=O)C=CC4(C)C3(F)C(O)CC12C (centres undefined)	-11	-1%	-6	1%
CN1CCS/C1=C/C=C1/SC(=S)N(Cc2ccccc2)C1=O	-18	?	-2	-8%
CN1CCS/C1=C/C=C1\SC(=S)N(CC(=O)O)C1=O	.	58µM*	24	?
CCCCN1C(=O)/C(=C/C=C2\SCCN2C)SC1=S	-20	52µM*	-8	-6%
FC(F)Oc1ccc(NC(=S)NCc2nc3ccccc3[nH]2)cc1	-85*	-3%	26	-5%
CCOc1ccc(NC(=S)NCc2nc3ccccc3[nH]2)cc1	?	0%	.	-9%
O=C(CCCNC(=O)c1ccc(Cl)cc1)Nc1nccs1	12	-9%	-2	7%
NNC(=O)C1=NOC2COC3(CCN(c4ncccn4)CC3)OCC12 (centres undefined)	8	-1%	2	3%
O=C(N/N=C\c1ccc(Cl)cc1)C1=NOC2COC3(CCN(c4ccc([N+](=O)[O-])cc4)CC3)OCC12 (centres undefined)	-103*	-5%	-38	-7%
C=CCn1c(Cc2csc(N)n2)nnc1SCC(=O)OCC	-95*	1%	0	-8%
C=CCn1c(Cc2csc(N)n2)nnc1SCC(=O)Nc1ccc(C(=O)OCC)cc1	2	1%	-5	-7%
Cc1ccc(S(=O)(=O)Nc2ccc(NC(=O)c3cccs3)cc2)cc1	8	1%	3	1%

Reprinted from the part before: five entries, then new ones.
SMILES	KCNH2 3.1 inh	Rango-impB inh	KCNH2 WT inh	Rango dissoc inh
NNC(=O)C1=NOC2COC3(CCN(c4ncccn4)CC3)OCC12 (centres undefined)	8	-1%	2	3%
O=C(N/N=C\c1ccc(Cl)cc1)C1=NOC2COC3(CCN(c4ccc([N+](=O)[O-])cc4)CC3)OCC12 (centres undefined)	-103*	-5%	-38	-7%
C=CCn1c(Cc2csc(N)n2)nnc1SCC(=O)OCC	-95*	1%	0	-8%
C=CCn1c(Cc2csc(N)n2)nnc1SCC(=O)Nc1ccc(C(=O)OCC)cc1	2	1%	-5	-7%
Cc1ccc(S(=O)(=O)Nc2ccc(NC(=O)c3cccs3)cc2)cc1	8	1%	3	1%
CC(=O)c1ccc(OC(=O)c2cccs2)cc1	-5	0%	-25	8%
CC(=O)NS(=O)(=O)c1ccc(NC(=O)c2ccc(NC(=O)c3cccs3)cc2)cc1	-163*	0%	-228*	8%
CC(=O)Nc1ccc(OC(=O)c2cccs2)cc1	-93*	3%	-7	-10%
CC1(CO)COC2(OC1)C(=O)Nc1ccccc12 (centres undefined)	-5	-2%	2	5%
CCN(CC)CCNC(=O)C(Cl)=C1C(Cl)=C(Cl)C(Cl)=C1Cl	-3	-1%	17	-5%
CC(=O)C1=C(O)C(=O)N(c2ccccn2)C1c1cccc(F)c1 (centres undefined)	-11	0%	14	5%
COc1ccc(Cl)cc1CC=NNC(=O)c1ccncc1	.	4%	-12	0%
Cc1cc(C)c(S(=O)(=O)N2CCN(c3ccc([N+](=O)[O-])c(-n4nc(C)cc4C)c3)CC2)c(C)c1	-10	0%	-17	0%
Cc1cc(C)n(-c2cc(N3CCN(S(=O)(=O)c4ccc(Br)cc4)CC3)ccc2[N+](=O)[O-])n1	-81*	1%	-2	-7%
Cc1nc2ccccc2n1CCOc1ccc([N+](=O)[O-])cc1	-79*	0%	45	6%
CC(=O)c1cccc(NC(=S)N2CCN(S(=O)(=O)c3ccccc3)CC2)c1	-2	1%	0	?
COc1cccc(NC(=O)COC(=O)c2c(NC(C)=O)sc(C)c2C)c1	1	6%	-73*	5%
Cc1ccc(C(c2nnnn2Cc2ccccc2)N2CCN(Cc3ccccc3)CC2)cc1 (centres undefined)	?	2%	-77*	4%
c1ccc(CN2CCN(C(c3ccccc3)c3nnnn3Cc3ccccc3)CC2)cc1 (centres undefined)	-44	-2%	-5	7%
COc1ccc(Cl)cc1NC(=O)CN(C)C(=O)c1cc2c(s1)CCCC2	-16	0%	26	1%
COc1ccc(C(=O)NCCCC2CCCC2)cc1OC1CCN(C(C)C)CC1	-94*	.	45	.
C=CCOc1ccccc1CN1CCC(Oc2cc(C(=O)NC3CC3)ccc2OC)CC1	-77*	-1%	-99*	1%
COc1ccc(C(=O)NC2CC2)cc1OC1CCN(C(C)CSC)CC1 (centres undefined)	-74*	?	-16	-17%
CCc1ccc(CN2CCC(Oc3cc(C(=O)NC4CC4)ccc3OC)CC2)cc1	-97*	.	-108*	.
Cc1noc(C)c1COc1ccccc1C(=O)NCCc1ccc(F)cc1	23	-1%	-4	5%
